The target of assay [1] is T1, FL-FLAG-Parkin RT (non-thermal treated) (Homo sapiens, UniProt O60260).
T1 construct: the entire coding region (residues 1–465) from NM_004562.1 was cloned into pFastBac; made in house; host or cells: Sf9 or Sf21 insect cells (baculovirus)
T1 sequence (O60260 1-465): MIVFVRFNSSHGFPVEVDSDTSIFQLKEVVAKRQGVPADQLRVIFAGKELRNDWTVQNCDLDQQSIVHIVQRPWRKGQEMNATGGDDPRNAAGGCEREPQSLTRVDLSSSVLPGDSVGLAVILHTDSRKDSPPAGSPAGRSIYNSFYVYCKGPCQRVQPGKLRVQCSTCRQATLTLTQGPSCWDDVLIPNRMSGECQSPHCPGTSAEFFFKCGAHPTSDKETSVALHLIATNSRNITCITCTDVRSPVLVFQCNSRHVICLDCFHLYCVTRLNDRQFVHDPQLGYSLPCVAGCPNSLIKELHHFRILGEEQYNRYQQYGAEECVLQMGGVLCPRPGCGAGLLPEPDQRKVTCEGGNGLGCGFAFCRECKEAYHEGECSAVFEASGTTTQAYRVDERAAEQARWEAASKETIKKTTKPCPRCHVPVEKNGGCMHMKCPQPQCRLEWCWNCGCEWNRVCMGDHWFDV
As to the kind of experiment: SPR kinetics/affinity on non-thermal treated FL-FLAG Parkin captured by anti-FLAG antibody. The note with it: 1:1 binding model, Parkin:Ab 3:1, non-thermal treated, read-out: Affinities KD of protein ligands. Here is the method: Kinetics and Affinity measurements were performed on a GE Healthcare Biacore T100 or T200 instrument. Anti-FLAG antibody M2 was immobilized on a CM5 sensor chip using standard amine coupling procedure at a concentration of 100 μg/ml to a level of 10000 response units (RU). […] Flow cell 2 contained antibody only to control for non-specific binding of fragments to the antibody, and flow cells 3 and 4 contained antibody and captured Parkin. Untagged Parkin domain R0RBR was immobilized by amine coupling at a concentration of 100 μg/ml in 10 mM acetic acid pH 5.0 using the same running buffer as for anti-FLAG antibody immobilization. […]
(§1) The flow rate was 30μl/min. The time-dependent binding curves were monitored simultaneously. […]
Kinetic and affinity data were solvent corrected (fragments only), reference subtracted and blank subtracted using the Biacore T200 evaluation software V.1. Kinetic constants were determined by curve fitting using a 1∶1 binding model. […] The rate of complex formation (1∶1 interaction) during fragment injection was calculated according to the equation (2): [drawing 2] […] The dissociation phase kd was measured using the rate of decline in RU after the injection stop, when free running buffer is flowing over the surface. Data were simultaneously fitted by the software and the dissociation constant KD calculated using equation (3). […]
(In general: SPR reads the build-up and loss of mass on a sensor chip optically.)

In assay [2] the target is T2, FL-FLAG-Parkin 56°C (thermal treated) (Homo sapiens, UniProt O60260).
T2 construct: the entire coding region (residues 1–465) from NM_004562.1 was cloned into pFastBac; made in house; host or cells: Sf9 or Sf21 insect cells (baculovirus)
T2 sequence (O60260 1-465): T1 sequence (O60260 1-465)
The assay can be described thus: SPR kinetics/affinity on thermal treated FL-FLAG Parkin captured by anti-FLAG antibody. The following applies: 1:1 binding model, thermal treated 56°C, read-out: Affinities KD of protein ligands. Here is the method: Kinetics and Affinity measurements were performed on a GE Healthcare Biacore T100 or T200 instrument. Anti-FLAG antibody M2 was immobilized on a CM5 sensor chip using standard amine coupling procedure at a concentration of 100 μg/ml to a level of 10000 response units (RU). […] The running buffer for both methods was 10 mM HEPES pH 7.4, 150 mM NaCl, 0.005% Tween-20, 4 mM reducing agent. […] Flow cell 2 contained antibody only to control for non-specific binding of fragments to the antibody, and flow cells 3 and 4 contained antibody and captured Parkin. […]
as §1
Kinetic and affinity data were solvent corrected (fragments only), reference subtracted and blank subtracted using the Biacore T200 evaluation software V.1. Kinetic constants were determined by curve fitting using a 1∶1 binding model. […] The rate of complex formation (1∶1 interaction) during fragment injection was calculated according to the equation (2): [drawing 2] […] The dissociation phase kd was measured using the rate of decline in RU after the injection stop, when free running buffer is flowing over the surface. Data were simultaneously fitted by the software and the dissociation constant KD calculated using equation (3). […] (3) Ligand efficiency (LE, Δg) was calculated as the binding energy of ligand per atom (equation 4) [drawing 4] […]

This is an account of results in publication PMC3702509, “Label Free Fragment Screening Using Surface Plasmon Resonance as a Tool for Fragment Finding – Analyzing Parkin, a Difficult CNS Target” (PLoS ONE, 2013).

Consider “UbcH7: Ubiquitin conjugating enzyme E2, non-tagged, purified in house”, for which the equilibrium dissociation constant (Kd) – broadly, the free concentration of one partner at which half of the binding sites on the other are occupied at equilibrium, for simple one-to-one binding – in assay [1] is 4.7 µM; in assay [2], 8.1 µM.
